{"source": "paper PMC10290130", "about": "“The potential of phenothiazinium dyes as cytotoxicity markers in cisplatin-treated cells” (Scientific Reports, 2023)", "origin": "cited, not measured here", "tested_on": "Vero cells", "settings": "read-out: IC50 (cytotoxicity); 72 h of incubation; cited from earlier work", "data": [{"smiles": "CN(C)c1ccc2nc3ccc(=[N+](C)C)cc-3sc2c1", "note": "[MB, 3,7-bis[dimethylamino]phenothiazin-5-ium chloride]", "values": [{"measurement": "IC50", "result": "> 62.5", "unit": "µM"}]}]}
